Test results: US10138229B2, “Heteroaromatic compounds as BTK inhibitors” (Boehringer Ingelheim International GmbH, priority 2012, dated 2018)

Protein sequences, listed by entry. Tags and fused reporters are not part of them. Residues count along the entry.
UniProt Q06187, whole entry: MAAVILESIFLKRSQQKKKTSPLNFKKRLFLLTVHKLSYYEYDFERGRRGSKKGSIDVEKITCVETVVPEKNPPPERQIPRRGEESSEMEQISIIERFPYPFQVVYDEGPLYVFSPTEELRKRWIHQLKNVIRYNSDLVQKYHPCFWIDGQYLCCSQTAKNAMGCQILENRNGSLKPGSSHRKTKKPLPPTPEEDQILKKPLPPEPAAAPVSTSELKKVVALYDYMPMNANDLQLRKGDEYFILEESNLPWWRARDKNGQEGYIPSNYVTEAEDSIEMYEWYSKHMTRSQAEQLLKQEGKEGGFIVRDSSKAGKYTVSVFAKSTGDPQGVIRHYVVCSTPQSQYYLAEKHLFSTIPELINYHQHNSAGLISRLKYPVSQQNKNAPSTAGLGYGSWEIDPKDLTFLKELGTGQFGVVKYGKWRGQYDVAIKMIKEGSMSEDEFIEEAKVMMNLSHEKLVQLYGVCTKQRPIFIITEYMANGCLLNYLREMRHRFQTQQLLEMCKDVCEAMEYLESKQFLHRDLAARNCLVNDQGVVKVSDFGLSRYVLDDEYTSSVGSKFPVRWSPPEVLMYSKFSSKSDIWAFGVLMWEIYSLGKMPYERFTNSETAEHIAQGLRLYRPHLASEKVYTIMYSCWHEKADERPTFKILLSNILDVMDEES
UniProt P00533, 25-1210 limits assumed: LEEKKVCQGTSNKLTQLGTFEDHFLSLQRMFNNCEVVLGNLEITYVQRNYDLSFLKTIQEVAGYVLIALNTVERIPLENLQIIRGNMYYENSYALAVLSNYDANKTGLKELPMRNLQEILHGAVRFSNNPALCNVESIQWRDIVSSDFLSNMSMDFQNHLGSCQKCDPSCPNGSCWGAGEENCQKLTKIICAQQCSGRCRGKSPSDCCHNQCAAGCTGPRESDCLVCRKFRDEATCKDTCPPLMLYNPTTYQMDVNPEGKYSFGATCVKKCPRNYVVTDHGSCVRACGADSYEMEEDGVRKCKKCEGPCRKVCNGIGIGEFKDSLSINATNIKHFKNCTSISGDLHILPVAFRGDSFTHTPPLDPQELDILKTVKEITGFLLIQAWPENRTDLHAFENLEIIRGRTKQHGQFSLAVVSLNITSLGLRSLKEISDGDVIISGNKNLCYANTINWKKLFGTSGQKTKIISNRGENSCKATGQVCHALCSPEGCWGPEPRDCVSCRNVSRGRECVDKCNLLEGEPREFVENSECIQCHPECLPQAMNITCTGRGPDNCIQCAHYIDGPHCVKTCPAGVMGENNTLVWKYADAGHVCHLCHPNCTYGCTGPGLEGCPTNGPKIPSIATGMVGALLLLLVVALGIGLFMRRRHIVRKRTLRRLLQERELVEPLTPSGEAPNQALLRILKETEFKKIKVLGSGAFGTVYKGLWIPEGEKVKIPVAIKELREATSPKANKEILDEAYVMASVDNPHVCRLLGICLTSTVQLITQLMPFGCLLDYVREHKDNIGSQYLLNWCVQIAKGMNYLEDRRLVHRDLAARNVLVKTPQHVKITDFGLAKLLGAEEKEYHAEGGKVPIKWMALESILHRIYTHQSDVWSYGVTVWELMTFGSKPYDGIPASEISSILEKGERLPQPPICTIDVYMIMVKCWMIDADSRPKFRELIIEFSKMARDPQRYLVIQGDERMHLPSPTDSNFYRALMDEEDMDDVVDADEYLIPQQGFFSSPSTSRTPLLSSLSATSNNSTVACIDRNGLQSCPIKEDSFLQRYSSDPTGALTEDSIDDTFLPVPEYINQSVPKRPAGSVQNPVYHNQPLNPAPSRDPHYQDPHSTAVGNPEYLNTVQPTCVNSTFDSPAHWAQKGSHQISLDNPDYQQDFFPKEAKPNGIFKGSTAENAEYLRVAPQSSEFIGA

Assays:
[1] = biological target: full-length human His-tagged BTK (Homo sapiens (Human), UniProt Q06187); assay: BTK Assay (HTRF, Cisbio KinEASE-TK); format: biochemical; settings: read-out: BTK IC50; 6 nM BTK, 30 uM ATP, 15 min preincubation
BTK = BTK (Homo sapiens (Human), UniProt Q06187); assay: Inhibition of B-cell activation measured by CD69 expression in primary CD19+ cells; format: cell-based; settings: read-out: B-cell CD69 IC50; primary CD19+ cells stimulated with anti-human IgD, CD69 expression by flow cytometry
EGFR = EGFR (Homo sapiens (Human), UniProt P00533); assay: Inhibition of EGFR autophosphorylation in A431 human epithelial cells stimulated with EGF; settings: read-out: A431 p-EGFR IC50, EGF 60 ng/mL, phospho EGFR

`CC#CC(=O)N1CC2(CC(n3nc(-c4ccc(OC5CC5)cc4)c(C(N)=O)c3N)C2)C1` was tested, and the IC50 [1] was 4.3 nM, the IC50 (BTK) was 24 nM and the IC50 (EGFR) was 6300 nM.
`C=CC(=O)N1CC[C@]2(C1)C[C@H](n1nc(-c3ccc(OCCC)c(Cl)c3)c(C(N)=O)c1N)C2` was tested, and the IC50 [1] was 3.5 nM.
